Laboratory results published in patent EP0151110B1, “L-N-n-PROPYLPIPECOLIC ACID-2,6-XYLIDIDE AND METHOD FOR PREPARING THE SAME” (priority 1983, dated 1985).

Assay: in vivo
Conditions: mouse, racemate, intravenous, 50% mortality of mice, read-out: LD50** I.v. (intravenous) mg/kg/mouse

| SMILES | LD50 |
| --- | --- |
| CCCN1CCCCC1C(=O)Nc1c(C)cccc1C (racemic) [compound 3] | 13.6 mg/kg |
| CCCN1CCCC[C@H]1C(=O)Nc1c(C)cccc1C [L-N-n-propylpipecolic acid-2,6-xylidide] | 7.8 mg/kg |
